## Apparent affinities of Ab-14 variants for a coronavirus HR2 peptide

Reference: Engelhart et al. 2022, doi:10.1038/s41597-022-01779-4. File: FLAb, binding data.

The target is the same throughout: PDVDLGDISGINAS, from the HR2 region of SARS-CoV-2 spike.

Parent scFv Ab-14: VH joined to VL by three GGGGS repeats. Changes lie in the heavy chain CDRs alone.
VH: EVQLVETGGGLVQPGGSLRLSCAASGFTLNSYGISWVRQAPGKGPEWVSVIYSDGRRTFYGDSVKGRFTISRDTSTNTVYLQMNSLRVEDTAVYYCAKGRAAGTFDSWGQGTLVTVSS
VL: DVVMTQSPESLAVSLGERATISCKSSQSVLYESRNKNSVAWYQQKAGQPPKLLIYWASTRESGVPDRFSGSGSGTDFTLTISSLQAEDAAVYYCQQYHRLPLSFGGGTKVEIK

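The parent was found by panning a naive human phage display library on the peptide. Variants in AAYL49 differ from the parent at up to three CDR positions; double and triple changes were sampled at random. AlphaSeq pools MATa yeast showing the antibodies with MATalpha yeast showing the peptide. After mating in shaken culture at 30 °C for 16 h, diploids were selected and their barcode pairs sequenced. The ratio of observed to expected reads was calibrated, replicate by replicate, on BCL2-family standards whose Kd was known from biolayer interferometry. There are three technical replicates.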

Sequences are complete VH domains.
The read-out is the apparent dissociation constant on a log10 scale (nM): the lower, the stronger.
A pair that was not seen in that replicate is written "ND"; this usually means weak binding, but a binder can also be missed.

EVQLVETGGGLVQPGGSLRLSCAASGFTLNSPGISWVRQAPGKGPEWVSVPYSDGRRTFYGDSVKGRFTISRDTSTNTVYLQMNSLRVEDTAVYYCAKGRAGGTFDSWGQGTLVTVSS: ND, ND, ND (controls 3 of 9).
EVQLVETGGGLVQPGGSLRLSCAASGFTLNSYGISWVRQAPGKGPEWVSVIYWWGRRTFYGDSVKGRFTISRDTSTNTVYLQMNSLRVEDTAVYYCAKGRAAGKFDSWGQGTLVTVSS: ND, ND, ND (controls 1 of 9).
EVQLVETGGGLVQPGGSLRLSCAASGFTLNSYGISWVRQAPGKGPEWVSVIYSQGRRTIYGDSVKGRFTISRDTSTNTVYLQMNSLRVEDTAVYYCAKGRFAGTFDSWGQGTLVTVSS: 2.90, ND, ND (controls 2 of 9).
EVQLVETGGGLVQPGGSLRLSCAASGFTLNSYGISWVRQAPGKGPEWVSIIMSDGRRTFYGDSVKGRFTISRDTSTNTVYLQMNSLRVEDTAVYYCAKGRAAGTFDSWGQGTLVTVSS: 5.39, 4.06, ND (controls 2 of 9).
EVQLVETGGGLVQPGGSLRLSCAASGFTLNSYGISWVRQAPGKGPEWVSVQYSDGRRTFAGDAVKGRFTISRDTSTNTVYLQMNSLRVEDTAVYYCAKGRAAGTFDSWGQGTLVTVSS: ND, ND, ND (controls 0 of 9).
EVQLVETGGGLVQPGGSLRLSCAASGFTSNSYKISWVRQAPGKGPEWVSVIYSDGRRFFYGDSVKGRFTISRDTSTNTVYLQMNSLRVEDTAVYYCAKGRAAGTFDSWGQGTLVTVSS: ND, 5.16, 5.83 (controls 0 of 9).
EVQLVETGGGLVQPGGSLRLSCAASGFTLNSYGISWVRQAPGKGPEWVSVIYSDGVRTFYGDSVKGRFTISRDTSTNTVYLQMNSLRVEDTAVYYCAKGRGIGTFDSWGQGTLVTVSS: ND, ND, ND (controls 0 of 9).
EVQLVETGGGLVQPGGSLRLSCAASGFTLNSYGISWVRQAPGKGPEWVSVIYSDGRRTFYGDSVKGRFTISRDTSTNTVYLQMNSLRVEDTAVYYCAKQRYAGTWDSWGQGTLVTVSS: ND, ND, ND (controls 1 of 9).
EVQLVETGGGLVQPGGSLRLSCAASGFQLNSYGISWVRQAPGKGPEWVSVIYSDGTRTFYMDSVKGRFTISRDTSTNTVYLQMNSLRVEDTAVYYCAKGRAAGTFDSWGQGTLVTVSS: 1.87, 1.75, 2.01 (controls 4 of 9).
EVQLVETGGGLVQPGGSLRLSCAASGFSLNSYGISWVRQAPGKGPEWVSVIYSDQRRTFTGDSVKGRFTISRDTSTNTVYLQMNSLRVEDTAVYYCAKGRAAGTFDSWGQGTLVTVSS: ND, ND, 3.58 (controls 2 of 9).
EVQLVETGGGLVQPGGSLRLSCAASGFTLNSYGISWVRQAPGKGPEWVSVIYEDGRATFYGDSCKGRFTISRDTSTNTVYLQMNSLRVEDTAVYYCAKGRAAGTFDSWGQGTLVTVSS: ND, ND, ND (controls 1 of 9).
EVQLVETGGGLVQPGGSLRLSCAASCFTLNSYGISWVRQAPGKGPEWVSVIYSDGQRTFYGDSVKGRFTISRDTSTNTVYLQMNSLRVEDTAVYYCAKGRAAGTFDSWGQGTLVTVSS: ND, ND, ND (controls 0 of 9).
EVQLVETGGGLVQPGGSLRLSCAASGFTLNSYGISWVRQAPGKGPEWVSMIYSDQRRTFYGDSVKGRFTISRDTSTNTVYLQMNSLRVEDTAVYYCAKGHAAGTFDSWGQGTLVTVSS: ND, ND, ND (controls 3 of 9).
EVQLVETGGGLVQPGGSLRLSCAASLFTLNSYEISWVRQAPGKGPEWVSVWYSDGRRTFYGDSVKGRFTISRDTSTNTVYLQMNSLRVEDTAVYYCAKGRAAGTFDSWGQGTLVTVSS: ND, 3.24, ND (controls 1 of 9).
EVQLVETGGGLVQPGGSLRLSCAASGFTLNSYGISWVRQAPGKGPEWVSVIYSDGRRCPYDDSVKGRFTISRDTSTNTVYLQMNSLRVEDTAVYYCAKGRAAGTFDSWGQGTLVTVSS: ND, ND, ND (controls 0 of 9).
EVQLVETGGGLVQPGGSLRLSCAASGFTLNSYGISWVRQAPGKGPEWVSVIYSDGRRTLCSDSVKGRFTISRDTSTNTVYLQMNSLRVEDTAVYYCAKGRAAGTFDSWGQGTLVTVSS: 3.03, 2.11, 2.45 (controls 1 of 9).
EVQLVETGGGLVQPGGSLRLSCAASGFTLNSYGCSWVRQAPGKGPEWVSVIYSDGIRTFYGDSVKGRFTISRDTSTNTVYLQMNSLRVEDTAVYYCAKGRAAPTFDSWGQGTLVTVSS: 3.88, ND, 3.98 (controls 1 of 9).
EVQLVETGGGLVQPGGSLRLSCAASGFTLNDYGISWVRQAPGKGPEWVSVIYSDGRPTFYGDSVKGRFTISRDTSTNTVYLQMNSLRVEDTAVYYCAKGRAAGTFDSWGQGTLVTVSS: ND, ND, ND (controls 0 of 9).
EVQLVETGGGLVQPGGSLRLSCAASGFTLNSYGISWVRQAPGKGPEWVSVIENDGRRTFYGDSVKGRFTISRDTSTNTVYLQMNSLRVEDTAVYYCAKGYAAGTFDSWGQGTLVTVSS: ND, ND, ND (controls 0 of 9).
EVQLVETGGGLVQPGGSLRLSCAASGFTLNSYGRSWVRQAPGKGPEWVSVIYSDGRRTFYGDMVKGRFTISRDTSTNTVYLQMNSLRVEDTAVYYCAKGRAAGTQDSWGQGTLVTVSS: 4.97, 3.81, ND (controls 3 of 9).
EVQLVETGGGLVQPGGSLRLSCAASGFTLNSYGISWVRQAPGKGPEWVSVIASDGRRTGYGDSVKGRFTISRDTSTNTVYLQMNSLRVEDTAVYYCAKGRAAGTDDSWGQGTLVTVSS: 3.22, ND, 4.14 (controls 2 of 9).
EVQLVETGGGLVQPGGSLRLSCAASGFTLNVYGISWVRQAPGKGPEWVSTIYSDGRKTFYGDSVKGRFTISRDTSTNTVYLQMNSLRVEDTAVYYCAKGRAAGTFDSWGQGTLVTVSS: 4.33, ND, 4.32 (controls 1 of 9).
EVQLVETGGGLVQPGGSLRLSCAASGFTLNNYGISWVRQAPGKGPEWVSVIYSDGRRTFYGNSVKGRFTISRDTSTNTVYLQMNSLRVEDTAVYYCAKGWAAGTFDSWGQGTLVTVSS: 0.99, 1.10, 1.18 (controls 2 of 9).
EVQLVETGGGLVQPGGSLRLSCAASGFTLNSYGISWVRQAPGKGPEWVSVIYQDGRPTFYGASVKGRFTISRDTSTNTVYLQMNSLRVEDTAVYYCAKGRAAGTFDSWGQGTLVTVSS: ND, 3.65, 5.94 (controls 3 of 9).

A selection of 4 entries from above:

| VH | replicates, log10 nM | control signals |
|---|---|---|
| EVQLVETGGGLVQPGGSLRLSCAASGFTLNSPGISWVRQAPGKGPEWVSVPYSDGRRTFYGDSVKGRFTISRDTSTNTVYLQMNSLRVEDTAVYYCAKGRAGGTFDSWGQGTLVTVSS | ND, ND, ND | 3/9 |
| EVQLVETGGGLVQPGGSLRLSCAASGFTLNSYGISWVRQAPGKGPEWVSVIYSDGRRCPYDDSVKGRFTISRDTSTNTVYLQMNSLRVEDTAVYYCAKGRAAGTFDSWGQGTLVTVSS | ND, ND, ND | 0/9 |
| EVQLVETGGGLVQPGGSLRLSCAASGFTSNSYKISWVRQAPGKGPEWVSVIYSDGRRFFYGDSVKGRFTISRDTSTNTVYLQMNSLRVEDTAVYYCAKGRAAGTFDSWGQGTLVTVSS | ND, 5.16, 5.83 | 0/9 |
| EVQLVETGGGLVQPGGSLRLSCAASCFTLNSYGISWVRQAPGKGPEWVSVIYSDGQRTFYGDSVKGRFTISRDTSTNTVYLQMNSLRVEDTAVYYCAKGRAAGTFDSWGQGTLVTVSS | ND, ND, ND | 0/9 |

Nonspecific signal, from three strains lacking the peptide, appeared in 15% of pairings of library AAYL49, centred on 4.06 (5% of these signals below 2.83); values are not corrected for it. For each scFv, signals with the empty controls are counted beside the result.
Parent in this assay: reference entry 0.65, copy in this library 4.11 (one replicate of three).